The target in this test is HLA-DR1 (DR1) (DRA*0101/DRB1*010101) (Homo sapiens, UniProt P01903+P01911, A100R/D57E/F55L/F60I/F76Y/I96L/L162R/M171V/P40L/Q125E/R42F/V115G/Y59C). Kind of test: MHC II stabilization assay. To be noted: 1 μM peptide-free DR1 with 1 μM HA or 1 μM DM, 37 °C overnight, pH 5.5, Superdex200; at least four independent experiments.

Consider Ac-PKYVKQNTLKLAT [HA peptide], for which the “aggregation of non peptide-loaded DR1” value is recorded as “stabilized MHC II such that aggregation was not observed”.

Values taken from paper PMC4490944 (Journal of immunology (Baltimore, Md. : 1950), 2015).
